{
  "source": "patent US11788086B2",
  "about": "“Antitumor compounds and tumor diagnosis” (CBMED GMBH CENTER FOR BIOMARKER RESEARCH IN MEDICINE, priority 2016, dated 2023)",
  "key": {"colon cancer PDX models": {"test_system": "colon cancer PDX models", "test": "Protein expression in colon cancer patients derived xenograft (PDX) models under chemotherapeutic treatment", "format": "in vivo, mice", "details": "colon primary carcinoma (CPC) PDX models, vs untreated control; not statistically significant", "procedure": "(§1) Protein expression was analyzed in NP-40 tissue lysates. Therefore normalized protein amounts were loaded onto 8% or 12.5% polyacrylamide gels in consideration of the molecular mass of the protein of interest. Electrophoresis was performed for 1.5 h at 120 V in SDS Running Buffer with the Mini-vertical electrophoresis unit (Amersham Biosciences). Then separated proteins were transferred to PVDF-membranes (Immobilin-P Transfer Membran; Millipore) using a Semi Dry Blotting Unit (JH BioInnovations) at 160 mA for 1.5 hours. […] Immunoblots were evaluated semi-quantitative using ImageJ (Schneider C A, et al. Nat Meth. 9(2012):671-5) software for densitometric analyses. Relative densities were then calculated by normalizing density values for each protein to the loading control (Actin).\n(§2) Samples of patients suffering from colon cancer or GBMs were transplanted into 3 to 6 immunodeficient NOD/SCID mice. The tumor growth was monitored in a daily rhythm. […] During chemosensitivity testing the tumor volume was measured regularly and used to generate growth curves. After a time period of 30-40 days the tumors were excised and analyzed by Immunoblot and Real-Time-PCR. […] Tumor volume of treatment in comparison to control (T/C) was calculated in percent. […]"}, "rectum cancer PDX models": {"test_system": "rectum cancer PDX models", "test": "Protein expression in rectum cancer PDX models under chemotherapeutic treatment", "format": "in vivo, mice", "details": "rectum primary carcinoma (RPC) PDX; not statistically significant", "procedure": "as §1, §2"}},
  "data": [
    {"substance": "Cetuximab: Epidermal growth factor receptor inhibitor", "values": [
      {"measurement": "mTOR protein expression", "setting": "colon cancer PDX models", "value": "trend to be upregulated"},
      {"measurement": "eIF4G protein expression", "setting": "rectum cancer PDX models", "value": "increased"}
    ]}
  ]
}
